# Source: ChEMBL document CHEMBL5543100 (Eur J Med Chem, 2024)
# Calls of active or inactive are those of the source. No cut-off for these calls is given here.
# Assays:
# [1] = system: OS-RC-2; assay: Induction of apoptosis in human OS-RC-2 cells assessed as increase in apoptotic cells at 100 to 500 uM by Annexin V-FITC/PI staining based flow cytometry analysis; assay type: functional, cell-based; details: dose 100-500 µM
# [2] = system: OS-RC-2; assay: Inhibition of glycolysis in human OS-RC-2 cells assessed as reduction in glucose consumption at 100 to 500 uM; assay type: functional, cell-based; details: dose 100-500 µM
# [3] = system: 786-0; assay: Inhibition of glycolysis in human 786-0 cells assessed as reduction in glucose consumption at 100 to 500 uM; assay type: functional, cell-based; details: dose 100-500 µM
# [4] = system: 786-0; assay: Induction of apoptosis in human 786-0 cells assessed as increase in apoptotic morphological changes at 100 to 500 uM; assay type: functional, cell-based; details: dose 100-500 µM
# [5] = system: 786-0; assay: Antiproliferative activity against human 786-0 cells assessed as inhibition of cell growth at 500 uM incubated for 48 hrs by CCK-8 assay; assay type: functional, cell-based
# [6] = system: 786-0; assay: Antiproliferative activity against human 786-0 cells assessed as inhibition of cell growth at 10 to 100 uM incubated for 48 hrs by CCK-8 assay; assay type: functional, cell-based; details: dose 10-100 µM
# [7] = system: OS-RC-2; assay: Induction of cell cycle arrest in human OS-RC-2 cells assessed as suppression of cell cycle related protein expression at 100 to 500 uM by Western blot analysis; assay type: functional, cell-based; details: dose 100-500 µM
# [8] = system: 786-0; assay: Induction of cell cycle arrest in human 786-0 cells assessed as suppression of cell cycle related protein expression at 100 to 500 uM by Western blot analysis; assay type: functional, cell-based; details: dose 100-500 µM
# [9] = system: OS-RC-2; assay: Inhibition of glycolysis in human OS-RC-2 cells assessed as reduction in lactate production at 100 to 500 uM; assay type: functional, cell-based; details: dose 100-500 µM
# [10] = system: 786-0; assay: Inhibition of glycolysis in human 786-0 cells assessed as reduction in lactate production at 100 to 500 uM; assay type: functional, cell-based; details: dose 100-500 µM
# [11] = system: 786-0; assay: Induction of apoptosis in human 786-0 cells assessed as increase in apoptotic cells at 100 to 500 uM by Annexin V-FITC/PI staining based flow cytometry analysis; assay type: functional, cell-based; details: dose 100-500 µM
# [12] = system: OS-RC-2; assay: Antiproliferative activity against human OS-RC-2 cells assessed as inhibition of cell growth at 10 to 100 uM incubated for 48 hrs by CCK-8 assay; assay type: functional, cell-based; details: dose 10-100 µM
# [13] = system: OS-RC-2; assay: Induction of apoptosis in human OS-RC-2 cells assessed as increase in apoptotic morphological changes at 100 to 500 uM; assay type: functional, cell-based; details: dose 100-500 µM
# [14] = system: OS-RC-2; assay: Antiproliferative activity against human OS-RC-2 cells assessed as inhibition of cell growth at 500 uM incubated for 48 hrs by CCK-8 assay; assay type: functional, cell-based
# [15] = system: OS-RC-2; assay: Antitumor activity against human OS-RC-2 cells xenografted in male immunodeficient BALB/c nude mouse assessed as tumor volume at 40 mg/kg/day, ip administered for 16 days and measured every other day (reference value: 741 +/- 294.89 mm3); assay type: functional; details: time 16 day
# [16] = system: OS-RC-2; assay: Reversal of sorafenib resistance in human OS-RC-2 cells assessed as optical density at 450 nm at 45 uM incubated for 24 hrs in presence of 9 uM sorafenib by microplate reader analysis (reference value: 1.094 to 1.099); assay type: functional
# [17] = system: OS-RC-2; assay: Reversal of sorafenib resistance in human OS-RC-2 cells assessed as optical density at 450 nm at 45 uM incubated for 24 hrs in presence of 21 uM sorafenib by microplate reader analysis (reference value: 0.477 to 0.526); assay type: functional
# [18] = system: OS-RC-2; assay: Reversal of sorafenib resistance in human OS-RC-2 cells assessed as optical density at 450 nm at 15 uM incubated for 24 hrs in presence of 15 uM sorafenib by microplate reader analysis (reference value: 0.645 to 0.850); assay type: functional
# [19] = system: OS-RC-2; assay: Reversal of sorafenib resistance in human OS-RC-2 cells assessed as optical density at 450 nm at 45 uM incubated for 24 hrs in presence of 3 uM sorafenib by microplate reader analysis (reference value: 1.288 to 1.358); assay type: functional
# [20] = system: OS-RC-2; assay: Reversal of sorafenib resistance in human OS-RC-2 cells assessed as optical density at 450 nm at 30 uM incubated for 24 hrs in presence of 24 uM sorafenib by microplate reader analysis (reference value: 0.414 to 0.448); assay type: functional
# [21] = system: OS-RC-2; assay: Reversal of sorafenib resistance in human OS-RC-2 cells assessed as optical density at 450 nm at 15 uM incubated for 24 hrs in presence of 12 uM sorafenib by microplate reader analysis (reference value: 0.776 to 0.944); assay type: functional
# [22] = system: OS-RC-2; assay: Reversal of sorafenib resistance in human OS-RC-2 cells assessed as optical density at 450 nm at 30 uM incubated for 24 hrs in presence of 27 uM sorafenib by microplate reader analysis (reference value: 0.316 to 0.328); assay type: functional
# [23] = system: OS-RC-2; assay: Reversal of sorafenib resistance in human OS-RC-2 cells assessed as optical density at 450 nm at 30 uM incubated for 24 hrs in presence of 15 uM sorafenib by microplate reader analysis (reference value: 0.645 to 0.850); assay type: functional
# [24] = system: OS-RC-2; assay: Antiproliferative activity against human OS-RC-2 cells assessed as optical density at 450 nm at 30 uM incubated for 24 hrs by CCK-8 assay (reference value: 1.501 to 1.613); assay type: functional
# [25] = system: OS-RC-2; assay: Antiproliferative activity against human OS-RC-2 cells assessed as optical density at 450 nm at 15 uM incubated for 24 hrs by CCK-8 assay (reference value: 1.501 to 1.613); assay type: functional
# [26] = system: OS-RC-2; assay: Reversal of sorafenib resistance in human OS-RC-2 cells assessed as optical density at 450 nm at 45 uM incubated for 24 hrs in presence of 27 uM sorafenib by microplate reader analysis (reference value: 0.316 to 0.328); assay type: functional
# [27] = system: OS-RC-2; assay: Reversal of sorafenib resistance in human OS-RC-2 cells assessed as optical density at 450 nm at 30 uM incubated for 24 hrs in presence of 9 uM sorafenib by microplate reader analysis (reference value: 1.094 to 1.099); assay type: functional
# [28] = system: OS-RC-2; assay: Reversal of sorafenib resistance in human OS-RC-2 cells assessed as optical density at 450 nm at 15 uM incubated for 24 hrs in presence of 3 uM sorafenib by microplate reader analysis (reference value: 1.288 to 1.358); assay type: functional
# [29] = system: OS-RC-2; assay: Reversal of sorafenib resistance in human OS-RC-2 cells assessed as optical density at 450 nm at 30 uM incubated for 24 hrs in presence of 12 uM sorafenib by microplate reader analysis (reference value: 0.776 to 0.944); assay type: functional
# [30] = system: OS-RC-2; assay: Reversal of sorafenib resistance in human OS-RC-2 cells assessed as optical density at 450 nm at 15 uM incubated for 24 hrs in presence of 27 uM sorafenib by microplate reader analysis (reference value: 0.316 to 0.328); assay type: functional
# [31] = system: OS-RC-2; assay: Reversal of sorafenib resistance in human OS-RC-2 cells assessed as optical density at 450 nm at 45 uM incubated for 24 hrs in presence of 12 uM sorafenib by microplate reader analysis (reference value: 0.776 to 0.944); assay type: functional
# [32] = system: OS-RC-2; assay: Reversal of sorafenib resistance in human OS-RC-2 cells assessed as optical density at 450 nm at 15 uM incubated for 24 hrs in presence of 24 uM sorafenib by microplate reader analysis (reference value: 0.414 to 0.448); assay type: functional
# [33] = system: OS-RC-2; assay: Reversal of sorafenib resistance in human OS-RC-2 cells assessed as optical density at 450 nm at 30 uM incubated for 24 hrs in presence of 21 uM sorafenib by microplate reader analysis (reference value: 0.477 to 0.526); assay type: functional
# [34] = system: OS-RC-2; assay: Reversal of sorafenib resistance in human OS-RC-2 cells assessed as optical density at 450 nm at 15 uM incubated for 24 hrs in presence of 21 uM sorafenib by microplate reader analysis (reference value: 0.477 to 0.526); assay type: functional
# [35] = Toxicity in male immunodeficient BALB/c nude mouse xenografted with human OS-RC-2 cells assessed as histopathological changes in heart by measuring effect on cardiomyocyte morphology at 20 to 40 mg/kg/day, ip administered for 16 days by H and E staining based analysis; assay type: organism-based, Cardiac Muscle Cell; details: in vivo, 384 h, dose 20-40 mg/kg/day, time 16 day
# [36] = Toxicity in male immunodeficient BALB/c nude mouse xenografted with human OS-RC-2 cells assessed as reduction in body weight at 40 mg/kg/day, ip administered for 16 days and measured every other day (reference value: 21.34 +/- 0.91 g); assay type: organism-based; details: in vivo, 384 h, time 16 day
# [37] = system: OS-RC-2; assay: Reversal of sorafenib resistance in human OS-RC-2 cells assessed as optical density at 450 nm at 15 uM incubated for 24 hrs in presence of 9 uM sorafenib by microplate reader analysis (reference value: 1.094 to 1.099); assay type: functional
# [38] = Toxicity in male immunodeficient BALB/c nude mouse xenografted with human OS-RC-2 cells assessed as histopathological changes in lung by measuring appearance of thickened alveolar septa at 20 to 40 mg/kg/day, ip administered for 16 days by H and E staining based analysis; assay type: organism-based; details: in vivo, 384 h, dose 20-40 mg/kg/day, time 16 day
# [39] = system: OS-RC-2; assay: Reversal of sorafenib resistance in human OS-RC-2 cells assessed as optical density at 450 nm at 30 uM incubated for 24 hrs in presence of 3 uM sorafenib by microplate reader analysis (reference value: 1.288 to 1.358); assay type: functional
# [40] = system: OS-RC-2; assay: Reversal of sorafenib resistance in human OS-RC-2 cells assessed as optical density at 450 nm at 45 uM incubated for 24 hrs in presence of 15 uM sorafenib by microplate reader analysis (reference value: 0.645 to 0.850); assay type: functional
# [41] = system: OS-RC-2; assay: Reversal of sorafenib resistance in human OS-RC-2 cells assessed as optical density at 450 nm at 15 uM incubated for 24 hrs in presence of 6 uM sorafenib by microplate reader analysis (reference value: 1.025 to 1.182); assay type: functional
# [42] = system: OS-RC-2; assay: Antitumor activity against human OS-RC-2 cells xenografted in male immunodeficient BALB/c nude mouse assessed as tumor volume at 20 mg/kg/day, ip administered for 16 days and measured every other day (reference value: 741 +/- 294.89 mm3); assay type: functional; details: time 16 day
# [43] = system: OS-RC-2; assay: Reversal of sorafenib resistance in human OS-RC-2 cells assessed as optical density at 450 nm at 30 uM incubated for 24 hrs in presence of 6 uM sorafenib by microplate reader analysis (reference value: 1.025 to 1.182); assay type: functional
# [44] = system: OS-RC-2; assay: Antiproliferative activity against human OS-RC-2 cells assessed as optical density at 450 nm at 45 uM incubated for 24 hrs by CCK-8 assay (reference value: 1.501 to 1.613); assay type: functional
# [45] = system: OS-RC-2; assay: Reversal of sorafenib resistance in human OS-RC-2 cells assessed as optical density at 450 nm at 45 uM incubated for 24 hrs in presence of 6 uM sorafenib by microplate reader analysis (reference value: 1.025 to 1.182); assay type: functional
# [46] = system: OS-RC-2; assay: Reversal of sorafenib resistance in human OS-RC-2 cells assessed as optical density at 450 nm at 45 uM incubated for 24 hrs in presence of 24 uM sorafenib by microplate reader analysis (reference value: 0.414 to 0.448); assay type: functional
compound,measurement,setting,value
COc1cc2nc(N3CCN(C(=O)C4CCCO4)CC3)nc(N)c2cc1OC (stereo unspecified),Activity,[1],inactive
same,inhibition,[2],Active
same,inhibition,[3],Active
same,Activity,[4],inactive
same,Activity,[5],Active
same,Activity,[6],inactive
same,Activity,[7],Active
same,Activity,[8],Active
same,inhibition,[9],Active
same,inhibition,[10],Active
same,Activity,[11],inactive
same,Activity,[12],inactive
same,Activity,[13],inactive
same,Activity,[14],Active
Cc1ccc(Nc2nc(NCCO)c3ccccc3n2)cc1,Activity,[15],414.87 mm3
same,OD,[16],0.334
same,OD,[17],0.23
same,OD,[18],0.341
same,OD,[19],0.717
same,OD,[20],0.231
same,OD,[21],0.362
same,OD,[22],0.186
same,OD,[23],0.3
same,OD,[24],0.925
same,OD,[25],1.248
same,OD,[26],0.184
same,OD,[27],0.359
same,OD,[28],0.973
same,OD,[29],0.334
same,OD,[30],0.214
same,OD,[31],0.309
same,OD,[32],0.28
same,OD,[33],0.279
same,OD,[34],0.331
same,Activity,[35],Toxic
same,Activity,[36],18.9 g
same,OD,[37],0.501
same,Activity,[38],Toxic
same,OD,[39],0.769
same,OD,[40],0.321
same,OD,[41],0.684
same,Activity,[42],572.68 mm3
same,OD,[43],0.562
same,OD,[44],0.833
same,OD,[45],0.419
same,OD,[46],0.2
